Key:
[1] = tested on: HL-60; experiment: Cell proliferation assay (ATPlite 1Step), single agents and combination with Compound A, curve-shift and CI; 72 h culture, 120 h for EPZ-6438, JQ1, MLN-4924, MLN-7243, MPI-0479605, NMS-P715
[2] = tested on: NCI-H661; experiment: as above
[3] = blending ratio (Compound A : combined compound) 1:4, Fa 50
[4] = blending ratio (Compound A : combined compound) 4:1, Fa 75
[5] = Compound A : combined compound 4:1, Fa 75, 72 h culture
[6] = Compound A + combined compound at fixed concentration 1 µM, Fa 50
[7] = blending ratio (Compound A : combined compound) 1:4, Fa 75
[8] = NCI-H661, blending ratio (Compound A : combined compound) 1:1, Fa 75
[9] = NCI-H661, blending ratio (Compound A : combined compound) 1:4, Fa 75
[10] = NCI-H661, blending ratio (Compound A : combined compound) 4:1, Fa 75
[11] = blending ratio (Compound A : combined compound) 1:1, Fa 90
[12] = blending ratio (Compound A : combined compound) 4:1, Fa 90
[13] = Compound A : combined compound 4:1, Fa 75, 120 h culture
[14] = NCI-H661, blending ratio (Compound A : combined compound) 1:1, Fa 50

With C=CCn1c(=O)c2cnc(Nc3ccc(N4CCN(C)CC4)cc3)nc2n1-c1cccc(C(C)(C)O)n1 the CI [1, 3] was 0.80, the CI [1, 4] was 0.81 and the CI ([2]; Compound A : combined compound 1:4, Fa 75, 72 h culture) was 0.39. The CI [2, 5] was 0.93.
Work on oxaliplatin yielded a CI [1, 6] of 0.87, a CI ([1]; Compound A + combined compound at fixed concentration 1 µM, Fa 75) of 0.85 and a CI ([1]; Compound A + combined compound at fixed concentration 1 µM, Fa 90) of 0.83. For the same compound, the CI ([2]; NCI-H661, Compound A + combined compound at fixed concentration 1 µM, Fa 50) was 0.77.
Cc1cc(Nc2cc(N3CCN(C)CC3)nc(Sc3ccc(NC(=O)C4CC4)cc3)n2)[nH]n1 was tested, and the CI [1, 3] was 0.71, the CI [1, 7] was 0.78 and the CI [2, 8] was 0.69. It also gave a CI [2, 9] of 0.80 and a CI [2, 10] of 0.63.
Compound CC1=C(/C=C/C(C)=C/C=C/C(C)=C/C(=O)O)C(C)(C)CCC1 has a CI ([1]; blending ratio (Compound A : combined compound) 1:1, Fa 50) of 0.79 and a CI ([1]; blending ratio (Compound A : combined compound) 4:1, Fa 50) of 0.80.
COc1cccc2c1C(=O)c1c(O)c3c(c(O)c1C2=O)C[C@@](O)(C(=O)CO)C[C@@H]3O[C@H]1C[C@H](N)[C@H](O)[C@H](C)O1 showed a CI [2, 9] of 0.90.
CO[C@@]12[C@H](COC(N)=O)C3=C(C(=O)C(C)=C(N)C3=O)N1C[C@@H]1N[C@@H]12 gave a CI [1, 11] of 0.96, a CI ([1]; blending ratio (Compound A : combined compound) 1:4, Fa 90) of 0.97 and a CI [1, 12] of 0.93. It also gave a CI ([2]; Compound A : combined compound 1:1, Fa 90, 72 h culture) of 0.36 and a CI ([2]; Compound A : combined compound 4:1, Fa 90, 72 h culture) of 0.07.
C[C@@H](Oc1cc(-c2cnn(C3CCNCC3)c2)cnc1N)c1c(Cl)ccc(F)c1Cl showed a CI ([2]; NCI-H661, blending ratio (Compound A : combined compound) 1:1, Fa 90) of 0.54, a CI [2, 10] of 0.54 and a CI ([2]; NCI-H661, blending ratio (Compound A : combined compound) 4:1, Fa 90) of 0.19.
NS(=O)(=O)OC[C@@H]1C[C@@H](n2ccc3c(N[C@H]4CCc5ccccc54)ncnc32)C[C@@H]1O showed a CI ([2]; Compound A : combined compound 1:1, Fa 90, 120 h culture) of 0.31, a CI ([2]; Compound A : combined compound 1:4, Fa 75, 120 h culture) of 0.30 and a CI ([2]; Compound A : combined compound 1:4, Fa 90, 120 h culture) of 0.43. For the same compound, the CI [2, 13] was 0.63.
With Nc1ccccc1NC(=O)c1ccc(CNC(=O)OCc2cccnc2)cc1 the CI ([1]; blending ratio (Compound A : combined compound) 1:1, Fa 75) was 1.04, the CI [1, 11] was 0.78 and the CI [1, 4] was 0.92. The CI [1, 12] was 0.70, the CI [2, 14] was 0.95 and the CI [2, 10] was 0.28.
For CCc1c2c(nc3ccc(O)cc13)-c1cc3c(c(=O)n1C2)COC(=O)[C@]3(O)CC, the CI ([2]; Compound A : combined compound 1:1, Fa 50, 72 h culture) was 1.04, the CI ([2]; Compound A : combined compound 1:1, Fa 75, 72 h culture) was 0.61 and the CI ([2]; Compound A : combined compound 1:4, Fa 50, 72 h culture) was 0.77. For the same compound, the CI [2, 5] was 0.43.
CS(=O)(=O)CCNCc1ccc(-c2ccc3ncnc(Nc4ccc(OCc5cccc(F)c5)c(Cl)c4)c3c2)o1 gave a CI [1, 6] of 0.97.
For COc1cccc2c1C(=O)c1c(O)c3c(c(O)c1C2=O)C[C@@](O)(C(=O)CO)C[C@@H]3O[C@H]1C[C@H](N)[C@@H](O)[C@H](C)O1, the CI [2, 9] was 0.80.
For Nc1ccn([C@@H]2O[C@H](CO)[C@@H](O)C2(F)F)c(=O)n1, the CI [2, 14] was 0.78, the CI [2, 8] was 0.10 and the CI ([2]; NCI-H661, blending ratio (Compound A : combined compound) 1:4, Fa 50) was 0.43. The CI [2, 9] was 0.10 and the CI [2, 10] was 0.10.
With Cc1cc(Nc2ncnc3ccc(NC4=NC(C)(C)CO4)cc23)ccc1Oc1ccn2ncnc2c1 the CI ([1]; Compound A + combined compound at fixed concentration 3.2 µM, Fa 50) was 1.03, the CI ([1]; Compound A + combined compound at fixed concentration 3.2 µM, Fa 75) was 0.81 and the CI ([1]; Compound A + combined compound at fixed concentration 3.2 µM, Fa 90) was 0.60.
In the case of CNCc1ccc(-c2cc(-c3nc(-c4ccc(S(=O)(=O)C(C)C)cc4)cnc3N)on2)cc1, the CI [1, 7] is reported as 1.02.
Cn1cc(-c2cnn3c(N)c(Br)c([C@@H]4CCCNC4)nc23)cn1 was tested, and the CI ([2]; NCI-H661, Compound A + combined compound at fixed concentration 3.2 µM, Fa 50) was 0.91.
NS(=O)(=O)OC[C@H]1C[C@@H](Nc2ccnc3cc(-c4cccc(SC(F)(F)F)c4)nn23)[C@H](O)[C@@H]1O was tested, and the CI [2, 13] was 0.90 and the CI ([2]; Compound A : combined compound 4:1, Fa 90, 120 h culture) was 0.77.
CC[C@@]1(O)C(=O)OCc2c1cc1n(c2=O)Cc2cc3ccccc3nc2-1 was tested, and the CI ([2]; NCI-H661, blending ratio (Compound A : combined compound) 1:4, Fa 90) was 0.10.
